Experimental data as given in PMC4510133, “Identification of Interactions between Abscisic Acid and Ribulose-1,5-Bisphosphate Carboxylase/Oxygenase” (PLoS ONE, 2015).
“And” between values parts separate entries of the source, which are not always exact repeats. Equal entries are not always repeated.

What was measured:
spinach Rubisco [1] = biological target: T1, spinach Rubisco (Spinacia oleracea, UniProt P00875); test: Rubisco activation (carbamylation), initial rate analysis with non-activated enzyme; format: biochemical; set-up: Commercially available Rubisco from spinach (Sigma-Aldrich); catalogue # R8000; purchased Sigma-Aldrich R8000; conditions: non-activated Rubisco pre-incubated with (+)-ABA; 1, 7, 20 mM NaHCO3; at least partially competitive; read-out: Ki for inhibition of Rubisco activation (Dixon analysis)
Procedure: (§1) Commercially available Rubisco from spinach (Sigma-Aldrich; catalogue # R8000; S1 Fig; specific activity 0.05 units / mg) was dissolved in a buffer containing 15 mM MgCl2 and 25 mM NaHCO3 at pH 8.0 for activation. Each assay (total volume, 1.0 mL) contained 50 mM Bicine (pH 8.0), 15 mM MgCl2, 10 mM NaCl, 5 mm DTT, 5 mM phosphocreatine, 5 mM ATP, 5 mM phosphoenolpyruvate, and 25 mM NaHCO3. This mixture was prepared before each set of experiments. Five minutes before initiating the reaction with the addition of activated Rubisco, the following were added: RuBP at the indicated concentrations), 0.4 mM NADH, 20 units mL-^-1 of glyceraldehyde-3-phosphate dehydrogenase, 20 units mL-^-1 of 3-phosphoglycerate kinase, and 2 units mL^-1 of creatine phosphokinase. Following the addition of activated Rubisco to a final concentration of 0.3 mg mL^-1, the NADH concentration was measured spectrophotometrically (λ = 340 nm) at 5 s intervals for 5 min. Absorbance values were converted to NADH concentrations using an extinction coefficient of 6.22 mM^-1. Reaction rates were evaluated from the slope of absorbance vs. time curves and plotted against concentration of RuBP. […] The non-activated Rubisco was then pre-incubated on ice for at least 10 minutes with or without the indicated concentrations of (+)-ABA, and the reactions initiated and monitored as described above. […]

spinach Rubisco [2] = biological target: T1, spinach Rubisco; test: Isothermal titration calorimetry; conditions: read-out: Kd by ITC; 20°C, 10 mM HEPES pH 7.9, Rubisco 39.42 μM, Independent binding model
spinach Rubisco [3] = biological target: T1, spinach Rubisco; test: Rubisco catalytic (carboxylation) activity, coupled spectrophotometric assay with pre-activated enzyme; format: biochemical; set-up: Commercially available Rubisco from spinach (Sigma-Aldrich); catalogue # R8000; purchased Sigma-Aldrich R8000; conditions: 10-1200 μM RuBP, non-competitive, read-out: Ki for inhibition of Rubisco catalysis (Dixon analysis)
Procedure: as §1

Substance: Abscisic acid [(+)-ABA]
- Ki (spinach Rubisco [1]): ~130 µM and 130 µM
- Kd (spinach Rubisco [2]): 11.1 µM
- Ki (spinach Rubisco [3]): 2100 µM and ~2100 µM
